Hits are enriched below; roughly 16% of the tested compounds scored in any of these assays.
DT40 TDP1 no CPT: qHTS for Inhibitors of human tyrosyl-DNA phosphodiesterase 1 (TDP1): qHTS in cells in absence of CPT; DT40 Tdp1-/- hTDP1 cells, no CPT, ATP luminescence, 48 h; 420,000 compounds, 15% hits; Potency, µM (titrated, usually from 46.2 µM), for the others: at the highest dose activity change, negative = growth inhibition, usual class: inhibitors; also: potency is read from the fitted curve at half-maximal effect; % is scaled to controls: 0 for no effect and ±100 for the full control effect; nearly all actives have a fitted effect of over 55% in size
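Readout: luminescence from CellTiter-Glo after 30 min in the dark at RT. Cells: DT40 Tdp1-/- with stable hTDP1, 400/well. Exposure: compounds alone, ≥48 hr, 37 °C.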
TDP1 inh: inhibitors of human tyrosyl-DNA phosphodiesterase TDP1; Q9NUW8; recombinant TDP1, AlphaScreen DNA substrate cleavage; Potency, µM (titrated, usually from 130 µM), for inactives: top-dose activity change, negative = inhibition, most hits filed as inhibitors; 350,000 compounds, 0.28% hits; also: potency is read from the fitted curve at half-maximal effect; % is scaled to controls: 0 for no effect and ±100 for the full control effect; nearly all actives have a fitted effect of over 40% in size
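Tdp1 1 nM final; 15 min RT w/ cpd; substrate 15 nM, 5 min; beads 10 ug/ml, 10 min; AlphaScreen read. Neg ctrl: no enzyme.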
miR-21 FLuc: raises the signal of a miR-21 reporter; HeLa miR-21 FLuc reporter, luciferase, 48 h; Potency, µM (top dose mostly 38.3 µM), for inactives: at the highest dose reporter change, positive = more light; AID 2288; 340,000 tested, under 10 active; active = well fitted rising curve with a large enough effect; inconclusive = small, poorly fitted or top-dose-only effect; inactive = no such curve, though single readings can be large or run the other way;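 note: % of control where 0% means no effect; miR-21 action dims this reporter so a rising signal means less miR-21 action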
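HeLa cells stably expressing CMV-driven firefly luciferase with a downstream miR-21 binding sequence, endogenously expressing miR-21, were treated with titrations (up to about 40uM final) for 48 hours at 37 degree Celsius. Luciferase luminescence was read after lysis.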
uPA generation: inhibitors of cell surface uPA generation | Potency, µM (titrated, usually from 38.3 µM), for inactives: top-dose activity change, negative = inhibition, most hits filed as inhibitors | cell surface uPA generation assay, qHTS | 330,000 compounds, 0.31% hits | AID 540303; active = well fitted inhibition curve with a large enough effect; inconclusive = small, poorly fitted or top-dose-only effect; inactive = no such curve, though single readings can be large or run the other way; tested in mouse RAW 264.7 cells; also: potency is read from the fitted curve at half-maximal effect; % is scaled to controls: 0 for no effect and ±100 for the full control effect; nearly all actives have a fitted effect of over 55% in size
TDP1 cell CPT: DT40-hTDP1 cell growth loss with CPT; Potency, µM (doses to about 46.2 µM), inactives show at the top dose activity change, negative = growth inhibition, actives largely listed as inhibitors; 420,000 compounds, 12% hits; chicken DT40 Tdp1-/-;hTDP1 cells + 20 nM CPT, ATP luminescence, 48 h; also: potency is read from the fitted curve at half-maximal effect; % is scaled to controls: 0 for no effect and ±100 for the full control effect; nearly all actives have a fitted effect of over 55% in size
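Chicken DT40 Tdp1-/- cells stably complemented with human TDP1 were seeded at 400 cells/well in medium containing 20 nM camptothecin, exposed to pin-transferred compounds, and grown at 37 °C for at least 48 hr. Viability was read as ATP luminescence.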
The depositor's hits bear a star; ? = inconclusive; · = no result; [ ] = dose if it differs, or a comment. Unless noted, calls follow the shape of the dose curve; as a rule, active = well fitted curve in the direction sought with a large enough effect; inconclusive = small, poorly fitted or top-dose-only effect, or another doubt; inactive = no such curve, though single readings can be large; an effect the other way counts as inactive or inconclusive.

Screens by letter: A = DT40 TDP1 no CPT; B = TDP1 inh; C = miR-21 FLuc; D = uPA generation; E = TDP1 cell CPT
Cc1ccc2c(c1)N(CCCC(=O)NCc1cccc(F)c1)C(=O)CO2
  A: ?	B: -2.5%	C: 1.4%	D: ·	E: ?
CCc1ccccc1NC(=O)CN1C(=O)COc2ccc(S(=O)(=O)Nc3ccccc3)cc21
  A: 25.9µM*	B: 0.0%	C: 2.1%	D: ·	E: 18.4µM*
CC(=O)c1cccc(NC(=O)CCCN2C(=O)COc3ccc(C)cc32)c1
  A: ?	B: 2.5%	C: 0.4%	D: ·	E: 18.4µM*
CCOc1ccc(NC(=O)CN2C(=O)COc3ccc(S(=O)(=O)Nc4ccccc4)cc32)cc1
  A: ?	B: 2.8%	C: -1.4%	D: ·	E: ?
CCOC(=O)C1CCN(S(=O)(=O)c2ccc(OCC)cc2)CC1
  A: 2.2%	B: 6.5%	C: -0.6%	D: -0.4%	E: -3.6%
CCSc1nnc2ccc(-c3ccco3)nn12
  A: 0.7%	B: -2.3%	C: 0.6%	D: 2.7%	E: -0.7%
CCOC(=O)c1cnc2c(ccc3ccccc32)c1Nc1cccc(C(F)(F)F)c1
  A: -3.6%	B: 2.2%[12.3 µM]	C: -10.1%	D: ·	E: -28.6%
O=C(CN1C(=O)COc2ccc(S(=O)(=O)Nc3ccccc3)cc21)Nc1cccc(Cl)c1
  A: ?	B: 2.8%	C: 1.5%	D: ·	E: 16.4µM*
COc1ccc(NC(=O)CN2C(=O)COc3ccc(S(=O)(=O)Nc4ccccc4)cc32)cc1OC
  A: -27.3%	B: 3.8%	C: -1.6%	D: ·	E: -5.1%
COc1ccc(OC)c(NC(=O)CSc2ncnc3c2cnn3-c2ccccc2Cl)c1
  A: 1.3µM*	B: 5.0%	C: 6.9%	D: -15.3%	E: 2.06µM*

Three of these compounds, set out differently.
Cc1ccc2c(c1)N(CCCC(=O)NCc1cccc(F)c1)C(=O)CO2
  DT40 TDP1 no CPT: ? | TDP1 inh: -2.5% | miR-21 FLuc: 1.4% | uPA generation: · | TDP1 cell CPT: ?

COc1ccc(NC(=O)CN2C(=O)COc3ccc(S(=O)(=O)Nc4ccccc4)cc32)cc1OC
  DT40 TDP1 no CPT: -27.3% | TDP1 inh: 3.8% | miR-21 FLuc: -1.6% | uPA generation: · | TDP1 cell CPT: -5.1%

O=C(CN1C(=O)COc2ccc(S(=O)(=O)Nc3ccccc3)cc21)Nc1cccc(Cl)c1
  DT40 TDP1 no CPT: ? | TDP1 inh: 2.8% | miR-21 FLuc: 1.5% | uPA generation: · | TDP1 cell CPT: 16.4µM*

The list goes on:
Screens by letter: A = DT40 TDP1 no CPT; B = TDP1 inh; C = miR-21 FLuc; D = uPA generation; E = TDP1 cell CPT
CC(=O)NC(Cc1c(F)c(F)c(F)c(F)c1F)C(=O)NCC(N)C(=O)c1ccccc1 (centres undefined)
  A: 20µM*	B: ·	C: ·	D: ·	E: ?
CCCNC(=O)C(Cc1ccc(F)cc1)NC(=O)c1ccccc1 (centres undefined)
  A: -15.9%	B: 1.4%	C: ·	D: -1.5%	E: -24.6%
C=CCNC(=S)NNC(=O)CCC(O)CCCCC (centres undefined)
  A: 18.4µM*	B: 1.0%	C: 2.2%	D: -1.8%	E: 14.6µM*
COC(=O)c1ccccc1-c1c2ccc(=N)cc-2oc2cc(N)ccc12
  A: 0.581µM*	B: 8.4%	C: ·	D: -3.5%	E: 0.731µM*
COC(=O)C1=C(C)NC(=O)/C1=C\c1cc(C)n(-c2cccc(C)c2)c1C
  A: 16.4µM*	B: 9.8%	C: -2.6%	D: 6.3%	E: ?
CCO[C@H]1OC(C(=O)N2CCN(Cc3ccccc3)CC2)=C[C@@H](c2coc3ccccc3c2=O)[C@@H]1CCCO
  A: 23.1µM*	B: 1.3%	C: 13.6%	D: 0.5%	E: 25.9µM*
CCO[C@H]1OC(C(=O)N2CCN(C)CC2)=C[C@@H](c2coc3ccccc3c2=O)[C@@H]1CCCO
  A: -0.2%	B: 2.6%	C: 2.3%	D: -0.6%	E: 2.2%
CCO[C@@H]1OC(C(=O)N2CCN(Cc3ccccc3)CC2)=C[C@H](c2coc3ccccc3c2=O)[C@H]1CCCO
  A: 7.31µM*	B: 5.1%	C: 7.6%	D: -8.0%	E: 8.2µM*
C#Cc1ccc([C@@H]2C=C(C(=O)N3CCN(Cc4ccccc4)CC3)O[C@H](OCC)[C@H]2CCCO)cc1
  A: 23.1µM*	B: 2.6%	C: 29.7%	D: -12.7%	E: ?
CCO[C@@H]1OC(C(=O)N2CCN(Cc3ccc4c(c3)OCO4)CC2)=C[C@H](c2coc3ccccc3c2=O)[C@H]1CCCO
  A: 18.4µM*	B: 2.6%	C: 10.7%	D: -5.3%	E: 16.4µM*
CCO[C@H]1OC(C(=O)N2CCN(Cc3ccc4c(c3)OCO4)CC2)=C[C@@H](c2csc3ccccc23)[C@@H]1CCCO
  A: ?	B: 7.7%	C: 19.9%	D: ?	E: ?
CN(C)N1C(N)=C(C#N)C(c2ccc(F)cc2)C2=C1CC(C)(C)CC2=O (centres undefined)
  A: 8.0%	B: ·	C: 7.2%	D: 5.6%	E: -1.9%
Cc1ccc(N(CC(=O)NCc2ccccn2)S(=O)(=O)c2ccccc2)cc1Cl
  A: ?	B: 1.1%	C: -0.4%	D: 3.6%	E: ?
O=C(NCC(=O)N(c1ccc(F)cc1)C(C(=O)NC1CCCC1)c1cccnc1)c1cccs1 (centres undefined)
  A: -16.2%	B: -2.4%	C: 1.1%	D: 0.6%	E: 23.7%
COc1ccc(CNC(=O)c2ccc3c(c2)CCN3S(=O)(=O)c2ccccc2)cc1
  A: 18.4µM*	B: 2.3%	C: 11.2%	D: ·	E: 11.6µM*

Assay outcomes: PubChem, National Center for Advancing Translational Sciences (NCATS)
